Here are results for 2 molecules from patent publication US20160303258A1, “COMPOUNDS AND COMPOSITIONS FOR IMAGING GCC-EXPRESSING CELLS” (MILLENNIUM PHARMACEUTICALS, INC., priority 2013, published 2016).

Sequences of proteins named here, by UniProt entry; tags and fusion partners are left off. Residues count along the entry.
UniProt P25092, 24-1073: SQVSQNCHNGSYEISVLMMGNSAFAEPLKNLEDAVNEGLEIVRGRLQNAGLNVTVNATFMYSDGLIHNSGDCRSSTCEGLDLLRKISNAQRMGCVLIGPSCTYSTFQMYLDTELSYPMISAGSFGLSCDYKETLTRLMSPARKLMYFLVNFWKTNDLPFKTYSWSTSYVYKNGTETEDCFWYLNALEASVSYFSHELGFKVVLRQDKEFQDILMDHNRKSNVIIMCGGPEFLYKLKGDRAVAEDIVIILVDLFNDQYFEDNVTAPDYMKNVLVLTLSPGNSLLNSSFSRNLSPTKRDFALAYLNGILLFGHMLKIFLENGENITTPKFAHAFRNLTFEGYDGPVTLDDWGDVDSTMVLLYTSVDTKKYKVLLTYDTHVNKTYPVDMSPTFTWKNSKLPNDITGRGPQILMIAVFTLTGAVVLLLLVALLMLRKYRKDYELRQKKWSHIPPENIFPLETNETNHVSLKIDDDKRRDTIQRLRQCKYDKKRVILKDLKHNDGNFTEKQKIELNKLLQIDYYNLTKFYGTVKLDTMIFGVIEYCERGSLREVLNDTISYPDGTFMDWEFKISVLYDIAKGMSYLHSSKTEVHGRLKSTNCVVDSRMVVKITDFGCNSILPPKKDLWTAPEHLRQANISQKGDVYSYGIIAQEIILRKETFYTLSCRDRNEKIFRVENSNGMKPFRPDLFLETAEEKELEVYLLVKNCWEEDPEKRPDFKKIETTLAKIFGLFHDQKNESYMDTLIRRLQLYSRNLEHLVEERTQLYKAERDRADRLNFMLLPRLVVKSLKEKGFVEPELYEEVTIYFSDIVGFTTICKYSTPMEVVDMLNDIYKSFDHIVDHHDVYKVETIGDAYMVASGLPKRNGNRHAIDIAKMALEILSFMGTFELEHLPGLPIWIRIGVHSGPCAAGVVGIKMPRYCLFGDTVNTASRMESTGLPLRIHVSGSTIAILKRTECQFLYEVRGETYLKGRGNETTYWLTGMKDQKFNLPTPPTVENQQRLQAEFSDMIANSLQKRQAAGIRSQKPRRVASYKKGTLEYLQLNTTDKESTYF

Series [1] is described as follows: Effect of mass dose on tumor uptake, biodistribution in HEK-293 GCC Clone 2 xenograft mice. The class given is in vivo. As to conditions: female, CB-17 SCID, mouse, 0.01 ug, 0.01 μg mass, 1 hour postdose. Here is the method: An additional in vivo study was conducted using HEK-293 GCC clone 2 human embryonic kidney tumor xenografts in female CB-17 SCID mice to evaluate the effect of increasing the mass dose of [^68Ga]MLN6907 DP on tumor uptake. [68Ga]MLN6907 DP was administered to female CB-17 SCID mice bearing HEK-293 GCC Clone 2 HEK tumor xenografts at a mass of 0.005 to 0.50 μg (FIG. 12).

The nature of series [2]: Internalization rate and residualization study. Format: cell-based. Here is the method: The upper curve depicts the amount of intracellular MLN6907, while the lower curve depicts the amount of surface-bound MLN6907.
Some parameters were known at the outset of the study, and others were determined experimentally. In these experiments, Indium-111 was used as a surrogate for Gallium-68 because the longer half-life of Indium was helpful in conducting some longer-duration assays.
(§1) The KD of MLN6907 for cell-surface GCC was calculated using an in vitro competitive binding assay with HEK-293 GCC clone 2 cells (FIG. 13). Antigen surface density of GCC on HEK-293 GCC clone 2 cells was estimated in vitro by Western blotting, and in vivo in the mouse model (FIG. 16). Decreased [68Ga]MLN6907 uptake in the tumor results from GCC receptor competition from added unlabeled peptide. […] The tumor uptake of [^68Ga]MLN6907 differed in tumors with varying levels of GCC expression and phenotype and is reflected in the initial in vivo calculated Bmax values.

Series [3] is described as follows: Effective radiation dose estimate using OLINDA/EXM software. Further details: species or system human. The source says:
Using OLINDA/EXM software, the effective dose was estimated to be 0.0131 mSv/MBq (1 mCi=37 MBq) in adult human male and 0.0139 mSv/Mbq in adult human female.

The subject of a further series is erythrocyte. Kind of series: In vitro hemolysis assay. Format: cell-based. The following applies: decayed nonradioactive DP, 3.5 μg/mL. Here is the method: Local tolerance of decayed nonradioactive [^68Ga]MLN6907 DP and MLN6907 DSP was evaluated using an in vitro hemolysis assay and as part of the GLP-compliant 2-week, repeat-dose toxicology studies, respectively.

For series [4], the target named is T1, GCC on HEK-293 GCC clone 2 cells (Homo sapiens, UniProt P25092).
T1 construct: expressed in transfected cells; host or cells: HEK-293 GCC Clone 2 (GCC-expressing HEK-293 cells)
Kind of series: Antigen surface density (Bmax) from in vivo competitive binding in the mouse model.
From the text: In contrast, [^68Ga]MLN6907 accumulates in a tumor at high levels. […] Levels of [^68Ga]MLN6907 in the kidney are high even in the presence of unlabeled competitor, indicating excreted through the kidneys, and that this excretion is not dependent on GCC receptors.
Bmax is the antigen surface density as determined by a competitive binding study using [^68Ga]MLN6907. The H-score is the staining intensity when GCC is detected by immunohistochemistry. In general, the Bmax and H-scores correlate.
as §1

Series [5] in a line: Blood pharmacokinetics in mouse model. The following applies: blood half-life, mouse. The class given is in vivo. Here is the method:
FIG. 15. […] The y axis is the injected dose (% ID) per gram of tissue. In all three systems tested, blood clearance of the compound is rapid.
as §1

In a further series the target is T2, cell-surface GCC (Homo sapiens, UniProt P25092).
T2 construct: expressed in transfected cells; host or cells: HEK-293 GCC Clone 2 (GCC-expressing HEK-293 cells)
Kind of series: In vitro competitive binding assay with HEK-293 GCC clone 2 cells (KD). The following applies: read-out: KD Affinity. Here is the method:
FIG. 13 depicts the results of a competitive binding study showing the KD of MLN6907 for GCC on the surface of HEK-293 GCC clone 2 cells.
as §1

A short description of series [6]: Ex vivo biodistribution of 213Bi-labeled peptide in naive and tumor bearing mice. The following applies: over 3 h. Here is the method:
A biodistribution study was first conducted in 24 female mice to observe the ex vivo biodistribution of ^213Bi-DOTA-Ahx-STp(5-18). All tumor bearing (GCC) mice were randomized into n=4×3 groups and all naïve mice were randomized into n=4×3 groups. Due to issues with the gamma counter device, some data was lost, reducing the study to 20 animals total (n=12 tumor bearing; n=8 naïve). All mice were administered ^213Bi-DOTA-Ahx-STp(5-18) intravenously (IV) and animals were sacrificed at the following time points post injection: 15 minutes, 1 and 3 hours. The following tissues were resected for gamma counting to determine the tracer-derived radioactivity per unit tissue: tumor, blood, heart, kidney, liver, lungs, spleen, pancreas, bladder, small intestine, large intestine, stomach, bone, and muscle. […]
All resected tissues from the biodistribution study were analyzed by EG&G Wallac 1480 Wizard 3″ gamma counter to determine the ^213Bi-DOTA-Ahx-STp(5-18) derived radioactivity. The following tissues were analyzed: tumor, blood, heart, kidneys, liver, lungs, spleen, pancreas, bladder, small intestine, large intestine, stomach, bone, and muscle. Data were recorded in units of counts per minute (CPM) and later converted to units of μCi for presentation in activity concentration units of percent injected dose per gram (% ID/g).

The test system of a further series is GCC-293 tumor. Kind of series: In vivo tolerability and tumor growth study in tumor-bearing GCC-293 mice. Here is the method:
Following completion of the biodistribution study, an in vivo tolerability study was conducted in female tumor-bearing GCC-293 mice. Initially, 60 tumor bearing mice were randomized based on tumor size into one of four groups. Each group (n=8 animals per group) was characterized by its drug intervention and/or dose. Animals assigned to group 1 were administered 3 doses of 140 μCi ^213Bi-DOTA-Ahx-STp(5-18), intravenously (IV) every other day (Q2D) on days 0, 2 and 4. Animals in group 2 were administered 3 doses of 50 μCi ^213Bi-DOTA-Ahx-STp(5-18) IV Q2D on days 0, 2, and 4. Animals in group 3 were administered vehicle (0.1 M HCl/0.1 NaI, Tris, ascorbic acid, ultra-pure water, ethanol, and DTPA in exact proportion to labeled drug brought up in PBS; 100 μL) IV Q2D on days 0, 2, and 4 and served as negative controls. Lastly, animals in group 4 were administered 3 doses of 7.5 mg/kg of a GCC-targeting antibody drug conjugate once weekly for three weeks for a total of 3 doses on days 0, 7 and 14 and served as positive controls. Following dosing, tumor caliper measurements and body weights were recorded three times a week for 21 days or until animals were sacrificed (animals were sacrificed if tumor size exceeded 2000 mm^3 or body weight loss exceeded 20%). At the time of sacrifice, select tissues were collected from each animal and fixed in formalin for potential future IHC analysis.
Tumor caliper measurements were recorded two times a week to estimate tumor volumetric changes post dosing for animals in the tolerability study. Tumor caliper measurements were recorded in units of mm and later converted to a unit of volume, mm^3, and fold change was calculated using the equations below: […]
For experiment 2, any animal whose tumor grew greater than 2000 mm^3 or body weight decreased greater than 20% were euthanized in extremis.

The nature of series [7]: Dosimetry: imparted dose of 213Bi-labeled peptide. Format: in vivo, mice. The following applies: for imparted dose: 3 × 140 uCi doses on days 0, 2, and 4.
The mark [8] stands for this setting: Low Dose (3 x 50 μCi) vs Negative Control, Day 22.

Read-outs that look alike come from different tables or passages of the source.

Regarding `CC(C)C[C@@H]1NC(=O)[C@H](CCC(=O)O)NC(=O)[C@@H]2CSSC[C@@H]3NC(=O)[C@H](C)NC(=O)[C@@H]4CCCN4C(=O)[C@H](CC(N)=O)NC(=O)[C@H](CSSC[C@H](NC(=O)CCCCCNC(=S)Nc4ccc(C[C@H]5CN(CC(=O)O)CCN(CC(=O)O)CCN(CC(=O)O)CCN5CC(=O)O)cc4)C(=O)N2)NC(=O)[C@H](CSSC[C@@H](C(=O)N[C@@H](Cc2ccc(O)cc2)C(=O)O)NC(=O)CNC(=O)[C@H](C)NC3=O)NC1=O` [[^68Ga]MLN6907 DP, metal not drawn], the tissue uptake at 1 h in series [1] (blood, read-out: uptake in blood) came to 0.98 %ID/g; in series [1] (kidney, read-out: uptake in kidney), 7.68 %ID/g; in series [1] (liver, read-out: uptake in liver) it was 0.7 %ID/g; in series [1] (tumor (maximal uptake), read-out: uptake in tumor), 7.43 %ID/g. The tissue to tissue ratio at 1 h in series [1] (tumor / blood, read-out: tumor-to-tissue ratio, blood) was 7.7; in [1] (tumor / kidney, read-out: tumor-to-tissue ratio, kidney) it was 0.98; in series [1] (tumor / liver, read-out: tumor-to-tissue ratio, liver) it was 10.8. The “T1/2, kresid Residualization rate” value in series [2] (Indium-111 used as surrogate in longer assays) is more than 24 h. The “T1/2, ke Half-life of internalization” value in series [2] ([111In]MLN6907 as surrogate (FIG. 14)) was determined as 0.933 h. For the same molecule, the effective dose was 0.0139 mSv/Mbq in series [3] (adult human female) and 0.0131 mSv/MBq in [3] (adult human male). Besides, the erythrocyte hemolysis result in the series on erythrocyte is “no erythrocyte hemolysis”. The “Bmax Antigen surface density (HEK-293 GCC Clone 2)” value in [4] was ~14,000 (in vivo). Also, in series [5], the “PK In vivo blood PK” value was 26 min. Further, at cell-surface GCC, the Kd amounted to 3.2 nM.
Consider `CC(C)C[C@@H]1NC(=O)[C@H](CCC(=O)O)NC(=O)[C@@H]2CSSC[C@@H]3NC(=O)[C@H](C)NC(=O)[C@@H]4CCCN4C(=O)[C@H](CC(N)=O)NC(=O)[C@H](CSSC[C@H](NC(=O)CCCCCNC(=S)Nc4ccc(C[C@H]5CN(CC(=O)O)CCN(CC(=O)O)CCN(CC(=O)O)CCN5CC(=O)O)cc4)C(=O)N2)NC(=O)[C@H](CSSC[C@@H](C(=O)N[C@@H](Cc2ccc(O)cc2)C(=O)O)NC(=O)CNC(=O)[C@H](C)NC3=O)NC1=O` [^213Bi-DOTA-Ahx-STp(5-18), metal not drawn], for which the tissue uptake result in series [6] is “Highest uptake was seen in tumor, kidney, and bladder”. The “T/C, tumor growth fold change from baseline” value in the series with GCC-293 tumor (High Dose (3 x 140 μCi) vs Negative Control, day 11) was 0.24 (day 11); in the series on GCC-293 tumor (setting [8]), 0.52 (Day 22); in the series with GCC-293 tumor (Low Dose (3 x 50 μCi) vs Negative Control, day 11) it was 0.95 (day 11). For the same molecule, the tolerability result is recorded as “not tolerated well” in the series on GCC-293 tumor (High Dose, 3 doses of 140 μCi IV Q2D days 0, 2, 4) and “improved tolerability” with GCC-293 tumor (Low Dose, 3 doses of 50 μCi IV Q2D days 0, 2, 4). Moreover, the “body weight loss requiring euthanasia of all mice” value with GCC-293 tumor (High Dose, 3 doses of 140 μCi, over a 14 day period) is more than 20%. In the series with GCC-293 tumor (setting [8]), the “T/C, tumor growth” value is recorded as 1.04 (Day 22). The “probability of survival compared with the negative control” value in the series with GCC-293 tumor (Low dose (3 x 50 μCi), Kaplan Meier) is “higher probability of survival”. For the same molecule, the results for the AUC in series [7] (Blood), in series [7] (Kidney) and in series [7] (Tumor) were 0.162 h, 0.042 h and 0.068 h, respectively. The entries for the “imparted dose per activity” value in [7] (Blood), in series [7] (Kidney) and in series [7] (Tumor) were 35.8 mGy/MBq, 77.9 mGy/MBq and 20.7 mGy/MBq, respectively. The imparted dose in series [7] (Blood) came to 556 mGy; in [7] (Kidney) it was 1220 mGy; in [7] (Tumor), 322 mGy.

A word on the Kd: it is the constant that tells how readily two partners part at equilibrium.
